Test results taken from PubChem BioAssay AID1792 (The Scripps Research Institute Molecular Screening Center, 2009).
The list shows a part of the results, in another mix than the full data. Active and inactive are the calls of the source. Cut-off read from the data, not from the text of the source: active = inhibition above about 75%; inactive = the rest.

Chains of the proteins cited; added tags and fusions are not shown. Lines headed by an entry give the natural chain unless they say otherwise; changes in a name come on top.
UniProt Q9Y5S8: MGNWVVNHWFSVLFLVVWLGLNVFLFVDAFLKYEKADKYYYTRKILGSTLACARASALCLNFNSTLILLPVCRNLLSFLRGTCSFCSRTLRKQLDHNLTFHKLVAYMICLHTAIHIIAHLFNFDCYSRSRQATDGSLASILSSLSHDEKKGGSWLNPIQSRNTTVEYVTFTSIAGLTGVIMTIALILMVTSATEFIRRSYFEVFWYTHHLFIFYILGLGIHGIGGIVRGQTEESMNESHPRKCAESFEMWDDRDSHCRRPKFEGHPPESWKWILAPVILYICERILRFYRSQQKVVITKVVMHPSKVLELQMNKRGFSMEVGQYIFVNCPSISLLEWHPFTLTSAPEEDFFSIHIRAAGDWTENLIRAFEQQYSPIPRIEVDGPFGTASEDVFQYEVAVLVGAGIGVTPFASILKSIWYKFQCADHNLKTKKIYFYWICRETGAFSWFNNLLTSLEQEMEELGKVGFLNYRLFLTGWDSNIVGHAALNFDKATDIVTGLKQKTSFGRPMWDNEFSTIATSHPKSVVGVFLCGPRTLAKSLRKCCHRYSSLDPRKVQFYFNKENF

These compounds were tested against NADPH oxidase 1 (Homo sapiens) (UniProt Q9Y5S8) (assay: blocks human NADPH oxidase 1 activity (AID 1792)). Details: HT29 cells, luminol chemiluminescence ROS; at 6.7 µM; active compounds read high.
For `CCOC(=O)/C(=N/Nc1ccc([N+](=O)[O-])cc1)N1CC1`, the inhibition was inactive: 34%. In the case of `O=C(OC1CN2CCC1CC2)c1cccc([N+](=O)[O-])c1` (configuration not stated), the inhibition is reported as inactive: -61.3%.
